Screens from PubChem BioAssay.
In the library only some 1.6% were active in any assay of this set; here they are far more common.
PglD DTNB: PglD (C. jejuni) enzyme inhibition. purified PglD enzyme, DTNB colorimetric CoA detection. 360,000 tested, 0.098% active. inhibition, % at 12.5 µM; in the data active means inhibition above about 16%, passing the limit was not always enough
Vif imaging: inhibitors of HIV Vif; HEK293T cells, Vif self-association by quenched fluorescence, imaging, 24 h; inhibition, % at 7.49 µM; 340,000 tested, 0.35% active; AID 602346; in the data active means inhibition above about 50%, passing the limit was not always enough
CAL PDZ FP-1: human CAL PDZ-peptide interaction inhibition; AID 504414; 330,000 tested, 0.02% active; inhibition, % at 20 µM; purified CAL PDZ, TMR-peptide fluorescence polarization, 1 h;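 active means highest replicate inhibition of at least 40%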
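material = purified tagged CAL PDZ domain construct (CerCALP) | buffer or medium = sodium phosphate/NaCl buffer pH 7.4 with TCEP, IgG, Thesit | reagent = TMR-labelled reporter peptide T*-PRC34 bound in PDZ groove | incubation = 1 h room-temperature incubation prior to read | measured by = fluorescence polarization (mP) | evaluation = percent inhibition from loss of millipolarization | control set = unlabelled peptide and DMSO controls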
UUG fidelity: alters start codon recognition fidelity in yeast; S. cerevisiae UUG-firefly luciferase reporter, luminescence/redox ratio; activity score, % at 18.7 µM; actives 0.13% (n = 350,000); AID 602363;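 active = replicate mean at a twofold rise or more, about +100% in these data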;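 also: firefly luciferase made from a UUG start codon reports start codon fidelity; reporter light over untreated wells divided by growth signal over untreated wells; some hits fall short of that in this replicate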
ARNT-TACC3 inh: ARNT/TACC3 interaction disruption; 390,000 tested, 0.66% active; AlphaScreen His-ARNT PAS-B/GST-TACC3 binding, luminescence; TACC3 fragment carries E629A point mutation; AID 623870; Q9Y6A5; inhibition, % at 9.99 µM;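 active means mean inhibition of replicates at least 50% and at least half of replicates each reaching 50%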
CAL PDZ FP-2: CAL PDZ (human) peptide binding inhibition. Q9HD26. purified CAL PDZ, TMR-peptide fluorescence polarization, 1 h. inhibition, % at 24.9 µM. 300,000 tested, 0.92% active;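 active means mean inhibition of at least 30% with at least half of replicates also reaching 30%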
AlphaScreen ctr: AlphaScreen artifact in ARNT/TACC3 counter-screen; shares compounds with ARNT-TACC3 inh; His-ARNT PASB-GST AlphaScreen artifact counter-screen, luminescence; AC50, µM (highest dose often 68 µM); 1,200 tested, 50% active;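 active means every separate test run was called active for a drop in luminescence, with AC50 within twice the top valid dose, actives reach about 71 µM in these data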
Large screens that a line does not name were inactive (follow-up assays come after a bar, where they were run).

COc1ccc(/C=N/Nc2nnc(Cc3ccc(OC)c(OC)c3)c(=O)[nH]2)cc1OC	none (no result: PglD DTNB, UUG fidelity)
COc1ccc(Cc2nnc(N/N=C(\C)c3ccccc3)[nH]c2=O)cc1OC	ARNT-TACC3 inh 47 (no result: PglD DTNB, UUG fidelity) | AlphaScreen ctr inactive
COc1ccc(Cc2nnc(NN)[nH]c2=O)cc1OC	ARNT-TACC3 inh active | AlphaScreen ctr 27µM
O=C(Nc1nnc(SCc2ccc(F)cc2)s1)c1ccccn1	ARNT-TACC3 inh 79 (no result: PglD DTNB, UUG fidelity) | AlphaScreen ctr 17µM
CCC(C)c1c(N)n(S(=O)(=O)c2ccc(C)cc2)oc1=O (stereo not drawn)	ARNT-TACC3 inh 61 | AlphaScreen ctr 35µM
COc1ccc(S(=O)(=O)Nc2ccc3c(c2)C(=O)N([C@@H](C)CO)C[C@H](C)[C@H](CN(C)S(=O)(=O)c2c(C)noc2C)O3)cc1	none (no result: Vif imaging, CAL PDZ FP-1, CAL PDZ FP-2)
O=C(N/N=C/c1ccco1)c1cnccn1	none
O=C(N/N=C/C=C/c1ccco1)c1cnccn1	ARNT-TACC3 inh 62 (no result: CAL PDZ FP-2) | AlphaScreen ctr inactive
CN1CCN(C(=O)C[C@H]2CC[C@H]3[C@@H](COc4ccc(NC(=O)c5cccs5)cc4C(=O)N3C)O2)CC1	none (no result: Vif imaging, CAL PDZ FP-1, CAL PDZ FP-2)
CC(C)NC(=O)N1[C@H](CO)[C@@H]2c3ccccc3NC[C@@H]21	ARNT-TACC3 inh active (no result: Vif imaging, CAL PDZ FP-1, CAL PDZ FP-2) | AlphaScreen ctr inactive
O=C(Nc1ccccc1C(F)(F)F)c1ncn[nH]1	ARNT-TACC3 inh 59 (no result: PglD DTNB, UUG fidelity) | AlphaScreen ctr inactive
O=C(Nc1ccccc1C(F)(F)F)c1cnccn1	none (no result: CAL PDZ FP-2)
CCCN1[C@@H]2c3ccc(C4=CCCCC4)c(=O)n3C[C@@H]2[C@@H](CO)[C@@H]1C(=O)NC1Cc2ccccc2C1	none (no result: Vif imaging, CAL PDZ FP-1, UUG fidelity, CAL PDZ FP-2)
COc1ccc(-c2ccc3c(c2)O[C@H](CN(C)CC2CCOCC2)[C@H](C)CN([C@H](C)CO)S3(=O)=O)cc1	none (no result: Vif imaging, CAL PDZ FP-1, CAL PDZ FP-2)
Cn1c(CNc2ccccc2O)nc2ccccc21	ARNT-TACC3 inh 67 | AlphaScreen ctr inactive
CCOC(=O)CC(NC(=O)Cc1ccc(F)cc1)c1ccccc1Cl (stereo not drawn)	ARNT-TACC3 inh 22 (no result: PglD DTNB, UUG fidelity) | AlphaScreen ctr inactive
C[C@@H]1CN([C@@H](C)CO)C(=O)c2cccc(NC(=O)Nc3ccccc3)c2O[C@H]1CN(C)C(=O)Nc1ccc(F)cc1	none (no result: Vif imaging, CAL PDZ FP-1, CAL PDZ FP-2)
O=S(=O)(c1ccccc1)c1nc(-c2ccco2)oc1Nc1ccccc1	ARNT-TACC3 inh active (no result: PglD DTNB, UUG fidelity) | AlphaScreen ctr 62µM
O=S(=O)(c1ccc(F)cc1)c1nc(-c2ccco2)oc1Nc1ccccc1	none
O=c1cc(C(F)(F)F)nc(-n2[nH]c3c(c2=O)CCCC3)[nH]1	ARNT-TACC3 inh 56 (no result: CAL PDZ FP-1) | AlphaScreen ctr inactive
COc1cccc(/C=N/n2c(-c3n[nH]c4c3CCC4)n[nH]c2=S)c1O	ARNT-TACC3 inh 34 (no result: PglD DTNB, UUG fidelity) | AlphaScreen ctr inactive
COc1cc(/C=N/n2c(-c3n[nH]c4c3CCC4)n[nH]c2=S)cc(OC)c1O	none (no result: PglD DTNB, UUG fidelity)
Clc1nssc1=Nc1ccc(Br)cc1	none (no result: PglD DTNB, UUG fidelity)
Clc1nssc1=Nc1nncs1	ARNT-TACC3 inh 36 | AlphaScreen ctr inactive
C[C@@H]1CCCCO[C@@H](CN(C)C(=O)Cc2ccccc2)[C@@H](C)CN([C@@H](C)CO)C(=O)c2cc(NC(=O)CCC(F)(F)F)ccc2O1	none (no result: Vif imaging, CAL PDZ FP-1, CAL PDZ FP-2)
O=C(C[C@H]1C=C[C@@H](NC(=O)C2CC2)[C@@H](CO)O1)NCCCN1CCOCC1	none (no result: Vif imaging, CAL PDZ FP-1, CAL PDZ FP-2)
COCCCN=Cc1c(-c2ccccc2)[nH]n(-c2nc3ccccc3s2)c1=O	ARNT-TACC3 inh 58 | AlphaScreen ctr inactive
O=c1c(C=NCCCO)c(-c2ccccc2)[nH]n1-c1nc2ccccc2s1	none (no result: PglD DTNB, UUG fidelity, CAL PDZ FP-2)
C[C@H](CO)N1C[C@H](C)[C@H](CN(C)C(=O)NC2CCCCC2)Oc2ccc(NS(=O)(=O)c3cccs3)cc2CC1=O	ARNT-TACC3 inh 59 (no result: Vif imaging, CAL PDZ FP-1, CAL PDZ FP-2) | AlphaScreen ctr inactive
CC(C)NC(=O)Nc1ccc2c(c1)CC(=O)N([C@H](C)CO)C[C@H](C)[C@H](CN(C)S(=O)(=O)c1cccs1)O2	ARNT-TACC3 inh 108 (no result: Vif imaging, CAL PDZ FP-1, CAL PDZ FP-2) | AlphaScreen ctr inactive
COC(=O)C[C@@H]1CC[C@H]2[C@@H](COc3ccc(NC(=O)Nc4cc(C)cc(C)c4)cc3C(=O)N2C)O1	none (no result: Vif imaging, CAL PDZ FP-1, UUG fidelity, CAL PDZ FP-2)
CN1CCc2c(sc3c2C(=O)NC(c2ccccc2)N3)C1 (stereo not drawn)	none
